scFv variants of Ab-14 (light chain) against a SARS-CoV-2 spike peptide

Target: peptide PDVDLGDISGINAS, taken from heptad repeat 2 (HR2) of SARS-CoV-2 spike.

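The parent was found by panning a naive human phage display library on the peptide. This is the validation round: designs drawn from the data on random variants, tested in the same kind of assay. Group labels follow the data file (Ctrl: baseline library sampled from a position-specific scoring matrix, with some repeated check sequences; Rand: our label for a block that the file lists under HC and that is probably the random mutants of the ten best first-round binders; En: ensemble of fine-tuned language models; GP: Gaussian process model; HC: hill climbing; Gen: genetic algorithm; Gibbs: Gibbs sampling; a sequence that several methods proposed may carry one label only). The scFvs were displayed on barcoded MATa yeast, the peptide on MATalpha yeast. Pairs that bind mate more often; barcode pairs of the diploids are counted by sequencing. Each replicate has its own calibration line, from reference interactions of the BCL2 family. Mating was done six times.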

Ab-14 is the parent antibody, in scFv form: VH, then a (GGGGS)3 linker, then VL. The heavy chain is unchanged in all variants.
VH: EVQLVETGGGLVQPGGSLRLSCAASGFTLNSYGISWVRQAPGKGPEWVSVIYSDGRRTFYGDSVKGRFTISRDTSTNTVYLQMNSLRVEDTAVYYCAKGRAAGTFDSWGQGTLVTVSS
VL: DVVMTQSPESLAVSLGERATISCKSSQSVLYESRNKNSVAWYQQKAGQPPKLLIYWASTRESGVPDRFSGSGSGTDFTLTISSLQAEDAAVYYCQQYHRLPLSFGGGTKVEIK

Variants are written as CDR1, CDR2 and CDR3 of the light chain (limits as in the source). Parent: KSSQSVLYESRNKNSVA, WASTRES, QQYHRLPLS.
Numbers give log10(Kd / nM), so 0 is 1 nM and 3 is 1 µM. Smaller is tighter.
An entry "n.d." has no value in the source: the pair was not observed among the diploids in that replicate. This suggests poor binding but is not conclusive.

CDR-L1	CDR-L2	CDR-L3	group	log10 Kd (nM) by replicate	empty controls
KISYMGEIFSTNHSSIA	QASTREQ	QQYHRLPLS	En_HC	1.50 1.21 1.15 0.69 0.70 0.97	0/18
KQSQSVLYEARNKNSVA	DASTRES	QQYHRLPLS	GP_HC	-0.01 -0.16 -0.15 -0.09 -0.16 0.46	0/18
KLSFSNLYWDRNKNSVA	QASTRLM	QQYHRLPLS	GP_Gibbs	0.33 0.28 0.51 0.22 0.16 0.39	1/18 (2.56)
IVSQLMLWGWHAKNSIA	EAQTRLN	QQYERLPLF	En_Gen	1.22 0.65 0.85 0.72 0.61 1.10	0/18
KFSYGVLYEDRNQNSVA	NASQREQ	QQYHRLPLS	GP_Gibbs	-0.13 0.06 0.24 0.07 -0.25 -0.08	0/18
SVFMELAEEKASTRNIA	DASMRLA	QQYVRLPLG	En_Gibbs	0.27 0.45 -0.02 -0.03 0.06 0.35	0/18
KMSQSVLYQSRNSNAVA	QASQRES	QQYHRLPLS	GP_Gibbs	0.36 0.14 0.08 -0.02 -0.09 0.23	1/18 (2.20)
KLSQLGLYGQRNKMSVA	DASQRES	QQYHRLPLS	GP_Gibbs	-0.09 -0.10 -0.19 -0.39 -0.28 -0.22	0/18
KISQSVLDESRNKNSVA	NASTRES	QQYHRLPLS	Ctrl	0.10 0.23 0.10 -0.06 -0.07 0.28	2/18 (2.11)
KFMMSGEYQMHEQNNIA	QGEIKCK	QQYFRLPIT	En_Gibbs	n.d. n.d. n.d. 1.06 n.d. n.d.	0/18
KLSQGTYGLTQHASNVA	HDEMRWA	QQYDKLPLI	En_Gibbs	n.d. n.d. n.d. n.d. n.d. n.d.	0/18
VLPDNLLMSESQYHSIA	NGVQRME	QQYERLPLT	En_Gibbs	0.18 0.23 0.36 0.14 0.17 0.39	2/18 (2.65)
KSSQSTLSESRNKNSVA	WASTRES	QQYHRLYLS	Ctrl	n.d. n.d. n.d. n.d. n.d. n.d.	0/18
KLSQSELYESRMKNSVA	NASTREQ	QQYHRLPLS	GP_Gen	-0.03 0.30 0.66 -0.15 0.11 0.62	0/18
MLDMHLSYGDNLQNRIA	EANHLET	QQYAHLPLG	En_Gibbs	0.75 0.86 0.94 0.55 0.80 0.99	2/18 (2.87)
KLQQLVLYESRNKNSVA	QASTRMS	QAYHRLPLS	GP_Gibbs	1.16 1.44 1.00 0.96 1.41 1.82	2/18 (2.52)
KSGQGVLYESRNKNSVA	GASTGES	QQYHRLPLS	Rand	n.d. 2.51 2.39 2.17 n.d. n.d.	1/18 (2.11)
KSSQPVLYESRNKNSVA	WASTRMS	QQYHRLVLS	Ctrl	n.d. n.d. n.d. n.d. n.d. n.d.	0/18
KLRQSTLYESRNQNSVA	AASTRES	QQYHRLPLS	GP_HC	0.05 0.20 0.10 -0.11 0.18 0.20	0/18

The remaining entries, values ahead:

log10 Kd (nM) by replicate	empty controls	CDR-L1	CDR-L2	CDR-L3	group
-0.05 -0.07 -0.38 -0.39 -0.46 -0.18	0/18	KLPQMVLYESRNKNSVA	GASTRES	QQYHRLPLS	GP_HC
0.62 0.65 0.32 0.35 0.34 0.57	0/18	MISQSFLIGSRAKNSVA	QTSTRES	QQYDRLPLS	En_HC
0.14 -0.13 0.21 -0.19 -0.20 0.15	0/18	KLSQSHLYESRNKNSVA	QASTRCS	QQYHRLPLS	GP_Gen
1.86 1.57 1.60 1.18 1.53 1.66	0/18	RISMNFTWPGNARQNVA	EIQKAID	QQYAHLPLS	En_Gibbs
n.d. n.d. 2.28 n.d. n.d. 2.13	0/18	KLRQQTLYETRNKNSVA	QASTREE	QQYHRLPLS	GP_HC
0.05 -0.13 0.15 -0.20 -0.21 0.05	1/18 (2.50)	KVSMSVNYGQRNKNSVA	QASQRES	QQYHRLPLS	GP_Gibbs
0.30 1.07 0.97 1.09 0.47 1.25	0/18	KLDQKNRWNGMANYNVA	ASNTRVD	QQYHRLPLI	En_Gibbs
1.36 3.11 1.41 n.d. 3.09 2.17	1/18 (2.65)	MVSQLMLWGLHTKNSIA	EAQTRIN	QQYDRLPLF	En_Gen
1.33 1.92 1.75 1.54 1.82 1.28	2/18 (4.08)	NISESMYFQTRMKNNIA	EMSTRER	QHYHRLPLS	En_HC
0.60 0.46 0.32 0.17 0.07 0.56	1/18 (2.69)	ALSQSMDMTSRNKNSVA	DLTMREN	QQYHRLPLS	En_HC
n.d. n.d. n.d. n.d. n.d. n.d.	0/18	IVSQLMLWGMHAKNSIA	EAETRIN	QQYDRLPLF	En_Gen
0.36 0.65 0.69 0.21 0.69 0.82	1/18 (1.66)	SISGFMKSLSAHTNSVA	DMTNREN	QQYDRLPLS	En_Gen
0.02 -0.11 -0.04 -0.17 -0.22 -0.02	1/18 (2.69)	KLPNSSLYESRNKNQVA	SASTRES	QQYHRLPLS	GP_Gibbs
n.d. n.d. n.d. n.d. n.d. n.d.	0/18	NLSDGDMYHNNTRSAVA	NTTMRDF	QQYNRLPLD	En_Gibbs
0.56 0.65 0.88 0.66 0.43 0.69	1/18 (2.06)	KQSQEQLYESRNKNSVA	DASTRES	QQYHRLPLS	GP_HC
0.37 0.28 0.14 0.30 0.38 0.52	2/18 (3.53)	KALQSWLYESRNKNSVA	HASTREQ	QQYHRLPLS	GP_HC
0.24 0.32 0.08 0.00 -0.04 0.31	1/18 (2.53)	KLQQSNLYESRNKNSVA	NASTRES	QQYHRLPLS	GP_Gen
0.15 0.20 0.02 0.27 0.09 0.56	1/18 (2.53)	KMEQSDLLESRNVQSVA	QASTRES	QQYHRLPLS	GP_Gibbs
n.d. n.d. n.d. n.d. 2.00 n.d.	0/18	IVSQLMLWGMHAKNSIA	EAEMRTN	QQYERLPLF	En_Gen
1.45 1.17 1.69 1.53 1.60 2.13	0/18	MISQLFEGLSTSKNPVA	QVSTREE	QQYHRLPLS	En_HC

Top 6 of the variants detected in all replicates, tightest first:

CDR-L1	CDR-L2	CDR-L3	group	log10 Kd (nM) by replicate	empty controls
KLPQMVLYESRNKNSVA	GASTRES	QQYHRLPLS	GP_HC	-0.05 -0.07 -0.38 -0.39 -0.46 -0.18	0/18
KLSQLGLYGQRNKMSVA	DASQRES	QQYHRLPLS	GP_Gibbs	-0.09 -0.10 -0.19 -0.39 -0.28 -0.22	0/18
KLPNSSLYESRNKNQVA	SASTRES	QQYHRLPLS	GP_Gibbs	0.02 -0.11 -0.04 -0.17 -0.22 -0.02	1/18 (2.69)
KVSMSVNYGQRNKNSVA	QASQRES	QQYHRLPLS	GP_Gibbs	0.05 -0.13 0.15 -0.20 -0.21 0.05	1/18 (2.50)
KQSQSVLYEARNKNSVA	DASTRES	QQYHRLPLS	GP_HC	-0.01 -0.16 -0.15 -0.09 -0.16 0.46	0/18
KFSYGVLYEDRNQNSVA	NASQREQ	QQYHRLPLS	GP_Gibbs	-0.13 0.06 0.24 0.07 -0.25 -0.08	0/18

In the paper, a design with two or fewer of six values counts as a poor binder.
Background: pairings of all light chain designs with three empty control strains gave a value in 4% of cases (median 2.64, 5th percentile 1.59). Values in that range, when seen in few replicates, are hard to tell from nonspecific mating. The control count says in how many pairings with the empty strains this scFv gave a signal, with their mean in brackets.
Values of this round are not directly comparable with the first-round values of the same sequences.
Of ten entries with the parent sequence, four were seen in most replicates (averages 0.34 to 2.37), three in one and three in none, so single entries are noisy.

Reference: Li et al. 2023, doi:10.1038/s41467-023-39022-2. File: FLAb, binding data.